Experimental data: ChEMBL document CHEMBL5325419, “Design, synthesis and biological evaluation of novel thiosemicarbazones as cruzipain inhibitors” (Eur J Med Chem, 2023)

The chains behind the UniProt entries cited, without tags or fusion partners. Where a name states a change or a piece, a line headed by the entry shows the natural chain unless it says otherwise.
UniProt P25779: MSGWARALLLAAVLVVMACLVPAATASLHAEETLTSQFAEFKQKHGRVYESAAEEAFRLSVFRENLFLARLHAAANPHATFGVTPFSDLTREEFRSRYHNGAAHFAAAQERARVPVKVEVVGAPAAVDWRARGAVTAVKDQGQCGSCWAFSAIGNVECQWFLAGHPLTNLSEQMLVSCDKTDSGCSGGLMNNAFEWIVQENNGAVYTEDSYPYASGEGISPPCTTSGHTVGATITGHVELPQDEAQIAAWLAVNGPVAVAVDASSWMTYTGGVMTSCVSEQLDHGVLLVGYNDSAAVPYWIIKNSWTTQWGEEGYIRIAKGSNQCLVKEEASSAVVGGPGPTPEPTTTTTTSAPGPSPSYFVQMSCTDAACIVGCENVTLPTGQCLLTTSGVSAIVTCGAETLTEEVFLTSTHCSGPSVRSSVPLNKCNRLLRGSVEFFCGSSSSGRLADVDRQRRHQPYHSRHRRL

Key:
Cruzipain [1] = target: T1, Cruzipain (Trypanosoma cruzi, UniProt P25779); test: Inhibition of recombinant Trypanosoma cruzi Cruzipain using Z-FR-AMC as substrate preincubated for 20 mins followed by substrate addition and measured for 45 mins by fluorescence analysis
Cruzipain [2] = target: T1, Cruzipain; test: Inhibition of recombinant Trypanosoma cruzi Cruzipain using Z-Phe-Arg-AMC as substrate preincubated for 5 mins followed by substrate addition by spectrofluorometry analysis

IC50 (Cruzipain [1]): 176 nM | IC50 (Cruzipain [2]): 176 nM
Structure (SMILES): CC/C(=N\NC(N)=S)c1cccc(Br)c1
